{"source": "patent US7976843B2", "about": "“Method for screening peptides for use in immunotherapy” (Institut National de la Santa et de la Recherche Medicale …, priority 2000, dated 2011)", "key": {"[1]": {"tested_on": "RMAS-HHD targets loaded with peptide", "test": "Immunogenicity: CTL generation in HHD transgenic mice, 51Cr lysis of peptide-loaded targets", "assay_type": "in vivo", "conditions": "CTLs induced in HHD mice sensitized with the natural peptide; FIG. 1"}, "[2]": {"biological_target": "T1, HLA A2.1 molecule (Homo sapiens, UniProt P04439, D140Y/D185E/D98H/E176V/E277Q/G131W/G231S/I119V/I121R/I166T/I218V/L300P/L318F/N151K/N90K/P208A/P217A/Q86G/Q94H/R138H/R169H/T345S)", "test": "Stability of the peptide/HLA A2.1 complex (DC50) on T2 cells, flow cytometry", "assay_type": "binding", "description": "For each incubation time, the cells are then labeled, as indicated above, with the BB7.2 antibody, and analyzed by flow cytometry in order to evaluate the amount of peptide/HLA A2.1 complex present at their surface. […] The DC50 (dissociation complex: DC) is defined as being the time required for the loss of 50% of the HLA A2.1/peptide complexes stabilized at t=0."}, "[3]": {"biological_target": "T1, HLA A2.1 molecule", "assay_type": "binding"}, "[4]": {"tested_on": "RMAS-HHD cells loaded with peptide", "test": "Vax1/pet-neu immunization: CTL lysis of peptide-loaded RMAS-HHD cells", "assay_type": "in vivo, HHD mice", "conditions": "CTLs of a Vax1/pet-neu immunized mouse; RMAS-HHD targets loaded with the named peptide; FIG. 14", "description": "One week after the final immunization, their spleen cells are restimulated in vitro with B cells activated with LPS and loaded with each of the twelve peptides.\nThe cytotoxicity is evaluated using RMAS-HHD cells (target cells) loaded with the peptide corresponding to that with which the B cells were loaded or with a control peptide.\nSix mice are immunized with either the Vax1/pet-neu construct or the vector Vax1. Their spleen cells are stimulated in vitro in a repeated manner with the B cells activated with LPS and loaded with each peptide to be tested (effector cells).\nThe cytotoxicity is tested after the third stimulation in vitro. The RMAS-HHD cells, loaded with the peptide corresponding to that with which the B cells were loaded, or with a control peptide, and the EL-4/HHD/neu cells are used as target cells."}, "[5]": {"tested_on": "EL-4/HHD/neu tumor cells", "test": "Antitumor protection after peptide vaccination, EL-4/HHD/neu graft", "conditions": "10 HHD mice, two injections two weeks apart"}}, "note": "Where two headings read alike, the source gives them in different places.", "data": [{"sequence": "SLYNTVATL [HIV gag 76]", "values": [{"measurement": "killing of RMAS-HHD cells loaded with natural peptide or its P1Y variant", "setting": "[1]", "result": "same efficacy"}]}, {"sequence": "ALIHHNTHL [HER-2/neu 466]", "values": [{"measurement": "DC50 Y1-DC50 WT", "setting": "[2]; […], arrow in neighbouring cell gives direction", "result": ">4", "unit": "h"}, {"measurement": "DC50", "setting": "[2]; native peptides, time for loss of 50% of HLA A2.1/peptide complexes", "result": 2, "unit": "h"}]}, {"sequence": "CLTSTVQLV [HER-2/neu 789, reference compound]", "values": [{"measurement": "RA", "setting": "[3]", "result": 1.6}, {"measurement": "RA WT/RA Y1", "setting": "[3]", "result": 2.1}, {"measurement": "DC50", "setting": "[2]", "result": "6 to 8", "unit": "h"}, {"measurement": "DC50 Y1-DC50 WT", "setting": "[2]", "result": "=0 hours"}]}, {"sequence": "KIFGSLAFL [HER-2/neu 369]", "values": [{"measurement": "killing of RMAS-HHD cells loaded with natural peptide or its P1Y variant", "setting": "[1]", "result": "same efficacy"}, {"measurement": "specific lysis above background noise", "setting": "[4]", "result": 30, "unit": "%"}, {"measurement": "tumor size at D28", "setting": "[5]", "result": "474±234", "unit": "mm^2"}]}]}
